# Yeast mating assay 2: variants of the scFv Ab-91

Target: peptide PDVDLGDISGINAS, taken from heptad repeat 2 (HR2) of SARS-CoV-2 spike.

Parent: Ab-91, a human scFv built as VL, a 15-residue (Gly4Ser)3 linker, VH. Only the CDRs of the heavy chain vary.
VL: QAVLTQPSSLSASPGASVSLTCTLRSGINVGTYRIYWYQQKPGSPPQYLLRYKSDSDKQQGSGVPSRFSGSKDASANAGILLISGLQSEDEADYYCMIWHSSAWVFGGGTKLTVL
VH: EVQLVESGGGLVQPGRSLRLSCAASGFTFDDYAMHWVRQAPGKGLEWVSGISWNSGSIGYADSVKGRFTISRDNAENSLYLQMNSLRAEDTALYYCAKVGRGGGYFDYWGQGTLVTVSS

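The starting antibody came from a phage panning campaign against this peptide. In library AAYL51, one, two or three CDR residues were substituted; doubles and triples were drawn at random. Affinity was read by AlphaSeq, a pooled yeast mating assay with surface-displayed partners. After mating in shaken culture at 30 °C for 16 h, diploids were selected and their barcode pairs sequenced. Each replicate has its own calibration line, from reference interactions of the BCL2 family. Mating was done three times.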

Substitutions are numbered in sequence along the VH above, starting at 1 (not Kabat). Values are log10 of the apparent Kd in nM; lower means stronger binding. Where no diploid with the target was found in that replicate, the entry reads "nd": below detection, most likely a poor binder, though not proof of it. Empty control strains, which show no peptide, gave a signal in 21% of pairings with library AAYL51; the median was 4.54 and 95% of these signals were weaker than 3.26. No background was subtracted. For each scFv, signals with the empty controls are counted beside the result, with their mean in brackets.

| # | changes | log10 Kd (nM) by replicate | control signals |
|---|---|---|---|
| 1 | A33N+I58L+F106M | nd nd nd | 0 of 9 |
| 2 | G26Y+I51W+D62G | nd nd nd | 2 of 9 (4.44) |
| 3 | F29D+S57G+A61W | nd 3.44 nd | 0 of 9 |
| 4 | T28I+G50L+Y108F | nd nd nd | 1 of 9 (4.65) |
| 5 | F29A+W53F+K65D | nd 4.78 4.77 | 6 of 9 (4.67) |
| 6 | W53D+S57H+D62Q | 3.10 3.16 3.08 | 4 of 9 (4.54) |
| 7 | F27S+M34T+A61Y | 5.16 6.24 nd | 4 of 9 (4.59) |
| 8 | F29E+D62Q+K65Q | 5.85 nd nd | 0 of 9 |
| 9 | N54E+D62Q+G103E | nd 4.99 nd | 1 of 9 (5.49) |
| 10 | Y32S+W53Y+G59A | nd 4.46 nd | 2 of 9 (3.45) |
| 11 | F27G+G103H+D107K | nd nd nd | 0 of 9 |
| 12 | Y32P+Y105F+D107R | nd 4.34 4.77 | 8 of 9 (5.13) |
| 13 | D30W+I58M+Y105R | 1.92 2.37 1.95 | 2 of 9 (3.06) |
| 14 | G26V+M34V+G59W | nd nd nd | 0 of 9 |
| 15 | H35E+G50S+I58E | nd nd 4.71 | 3 of 9 (5.30) |
| 16 | T28V | 1.54 1.43 1.10 | 5 of 9 (4.32) |
| 17 | F27C+V64N | nd nd nd | 0 of 9 |
| 18 | F27Y+S57G+A61Y | nd nd nd | 1 of 9 (5.25) |
| 19 | F27L+I58N+D62V | 3.26 nd nd | 0 of 9 |
| 20 | S55W+I58M+K65Q | nd 5.47 4.58 | 5 of 9 (4.75) |
| 21 | G103S | 4.25 nd 4.58 | 1 of 9 (4.88) |
| 22 | F29M+Y32L+W53H | nd 4.43 nd | 1 of 9 (4.19) |
| 23 | S52W+I58W+G100N | 3.98 6.53 nd | 6 of 9 (4.34) |
| 24 | S57F+D62Y+G102R | nd nd nd | 0 of 9 |
| 25 | S55F+Y105I+D107H | nd nd nd | 0 of 9 |
| 26 | F29W+N54I+D107P | 4.82 5.06 nd | 7 of 9 (4.95) |
| 27 | F29H+D31S+Y108D | nd nd nd | 2 of 9 (4.47) |
| 28 | D31Q+G103I+D107K | 2.07 1.58 nd | 0 of 9 |
| 29 | G50N+I51V+A61Y | 4.56 nd nd | 2 of 9 (3.56) |
| 30 | G59A+D62R+V99H | 4.68 5.71 3.92 | 3 of 9 (5.18) |
| 31 | F29H+V99F+Y105F | nd nd 5.45 | 1 of 9 (4.55) |
| 32 | D30K+V64Y+G103F | 3.39 4.27 4.45 | 7 of 9 (4.67) |
| 33 | D31M+W53Y+G56Y | 1.88 1.72 0.51 | 2 of 9 (5.17) |
| 34 | W53A+V99W | 4.75 3.97 4.83 | 5 of 9 (4.76) |
| 35 | A33Y+H35S+G100Y | nd 5.65 4.36 | 6 of 9 (5.24) |
| 36 | F27S+F106W | nd nd nd | 0 of 9 |
| 37 | A61P | nd 4.51 nd | 7 of 9 (3.96) |
| 38 | D30T+G100N | nd nd nd | 1 of 9 (4.03) |
| 39 | F29M+Y32N+G100T | 3.48 3.08 4.84 | 3 of 9 (5.50) |
| 40 | A33F+G50F+N54F | nd nd nd | 0 of 9 |
| 41 | G50T+G56P | 4.68 nd nd | 4 of 9 (4.38) |
| 42 | A61W+V64S+Y105V | nd nd nd | 0 of 9 |
| 43 | T28D+Y32L+G103F | 3.10 nd nd | 3 of 9 (3.67) |
| 44 | A33Q+A61M+K65F | 4.76 nd nd | 5 of 9 (4.22) |
| 45 | F27C+M34I+S55W | nd nd nd | 0 of 9 |
| 46 | H35E+G102H+Y105D | nd nd nd | 2 of 9 (3.10) |
| 47 | Y60I+V64Q+D107K | nd 6.12 4.88 | 3 of 9 (4.60) |
| 48 | G26L+A33M+A61S | 3.84 nd nd | 0 of 9 |
| 49 | I51N+G104I+Y105F | nd nd nd | 1 of 9 (4.58) |
| 50 | T28Q+H35C+Y108A | 3.82 nd nd | 2 of 9 (3.94) |

Picked from the list: the 6 lowest averages where every replicate gave a value.

changes	log10 Kd (nM) by replicate	control signals
T28V	1.54 1.43 1.10	5 of 9 (4.32)
D31M+W53Y+G56Y	1.88 1.72 0.51	2 of 9 (5.17)
D30W+I58M+Y105R	1.92 2.37 1.95	2 of 9 (3.06)
W53D+S57H+D62Q	3.10 3.16 3.08	4 of 9 (4.54)
F29M+Y32N+G100T	3.48 3.08 4.84	3 of 9 (5.50)
D30K+V64Y+G103F	3.39 4.27 4.45	7 of 9 (4.67)

For reference, the parent read 1.86 as the reference entry and 0.88 as a member of this library.

From the AlphaSeq antibody data of Engelhart et al. 2022 (doi:10.1038/s41597-022-01779-4), copy in the FLAb collection.